Measurements published in BindingDB's records for patent US10150765 (Janssen Pharmaceutica, 2018).

Protein sequences, listed by entry. Tags and fused reporters are not part of them. Lines headed by an entry give the natural chain unless they say otherwise; changes in a name come on top.
UniProt Q99572: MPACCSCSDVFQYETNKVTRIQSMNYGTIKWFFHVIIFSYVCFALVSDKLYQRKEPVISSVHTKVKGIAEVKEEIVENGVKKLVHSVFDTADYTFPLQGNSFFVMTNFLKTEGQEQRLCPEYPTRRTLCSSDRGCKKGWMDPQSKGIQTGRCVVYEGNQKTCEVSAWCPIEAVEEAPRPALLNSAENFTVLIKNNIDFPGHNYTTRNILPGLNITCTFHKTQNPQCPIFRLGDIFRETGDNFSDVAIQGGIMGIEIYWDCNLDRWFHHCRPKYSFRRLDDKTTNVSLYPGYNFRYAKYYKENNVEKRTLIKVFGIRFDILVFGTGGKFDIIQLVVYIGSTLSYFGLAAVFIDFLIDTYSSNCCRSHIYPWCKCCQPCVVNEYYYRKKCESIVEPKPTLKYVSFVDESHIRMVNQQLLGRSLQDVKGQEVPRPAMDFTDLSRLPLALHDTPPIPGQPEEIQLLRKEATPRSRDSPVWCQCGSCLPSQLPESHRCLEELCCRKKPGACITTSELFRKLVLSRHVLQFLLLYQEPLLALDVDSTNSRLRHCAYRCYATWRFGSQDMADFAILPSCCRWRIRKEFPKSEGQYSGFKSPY

Biological target: P2X purinoceptor 7 (Homo sapiens, UniProt Q99572)
Assay: Radioligand Binding assay

## Cn1nc2c(c1-c1ccc(F)cc1)CCN(C(=O)c1cccc(C(F)(F)F)c1Cl)C2 [US10150765, Example 107]
  Ki: 79.4 nM
